This is an account of results in PubChem BioAssay AID602396 (The Scripps Research Institute Molecular Screening Center, 2012).

Amino acid sequences for entries named in this document (tags omitted).
UniProt O00482, whole entry: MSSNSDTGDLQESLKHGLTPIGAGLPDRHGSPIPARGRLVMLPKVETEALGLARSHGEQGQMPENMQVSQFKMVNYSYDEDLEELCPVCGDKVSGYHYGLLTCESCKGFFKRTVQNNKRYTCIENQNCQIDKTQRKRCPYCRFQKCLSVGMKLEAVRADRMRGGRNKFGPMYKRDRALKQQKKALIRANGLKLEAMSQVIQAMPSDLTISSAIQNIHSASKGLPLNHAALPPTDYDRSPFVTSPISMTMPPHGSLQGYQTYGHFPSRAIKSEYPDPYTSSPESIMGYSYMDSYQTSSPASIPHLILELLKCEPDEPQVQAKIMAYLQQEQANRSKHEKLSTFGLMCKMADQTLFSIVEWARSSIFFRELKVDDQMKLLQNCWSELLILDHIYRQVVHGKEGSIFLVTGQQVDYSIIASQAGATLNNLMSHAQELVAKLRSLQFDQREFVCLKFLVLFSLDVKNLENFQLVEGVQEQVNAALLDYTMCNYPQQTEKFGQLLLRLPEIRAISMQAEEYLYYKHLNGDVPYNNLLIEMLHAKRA

Each structure is given as a SMILES string. The list shows a part of the results, in another mix than the full data. Some structures show a salt or complex split into parts, the way the source records it. The source made the active and inactive calls.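 How the source made its calls: active means inhibition above the mean inhibition of all tested compounds plus 3 SD (cut at about 73% in these data); inactive means the rest.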

The target in the assay is Nuclear receptor subfamily 5 group A member 2 (Homo sapiens) (UniProt O00482). The assay is described as follows: LRH-1 (NR5A2) inverse agonists, primary screen, cell-based, luminescence, HEK293T, StAR-luciferase reporter (AID 602396).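 Further: 0% = DMSO wells and 100% = reporter-only cells lacking LRH-1.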 Conditions: LRH-1 transfected, 24 h, at 3.6 µM, active compounds read high.
As to `Cc1cc(C)cc(OP(C)(N)=O)c1` (centres undefined), the inhibition is inactive: 2.39%. The same measure for `COc1ccccc1OP(C)(=O)Nc1cc(Cl)ccc1C` (centres undefined): inactive: 6.64%; for `COc1ccc(OP(C)(=O)Nc2cccc(F)c2)cc1` (centres undefined): inactive: -17.9%.

With `COc1ccccc1OP(C)(=O)Nc1ccc(C)cc1` (centres undefined), the inhibition is inactive: 7.94%.

In the case of `Cc1ccc(NP(C)(=O)Oc2ccccc2)c(C)c1` (centres undefined), the inhibition was inactive: -6.62%. `CCOC(=O)c1ccc(NP(C)(=O)Oc2ccccc2)cc1` (centres undefined): the inhibition was inactive: -7.99%. In the case of `O=[N+]([O-])c1ccc2c(c1)C=Nc1ccccc1O2`, the inhibition was inactive: 13.8%.

Take `CC(C)(C)c1ccc(OP(C)(=O)Nc2ccc(SC(F)(F)F)cc2)cc1` (centres undefined): the inhibition was inactive: 12.2%.

Turning to `Cc1cccc(C)c1OP(C)(N)=O` (centres undefined), the inhibition is inactive: 0.02%. The same measure for `O=[N+]([O-])c1cc([N+](=O)[O-])c(Nc2cccnc2)c([N+](=O)[O-])c1`: inactive: -1.71%; for `COc1ccccc1-c1ccccn1.O=[N+]([O-])c1cc([N+](=O)[O-])c(O)c([N+](=O)[O-])c1`: inactive: 6.5%; for `CCN(CC)CCCOC(=O)C(O)(c1ccccc1)c1ccccc1`: inactive: 10.6%. The same measure for `CP(=O)(Nc1ccccn1)Oc1ccc(Cl)cc1` (centres undefined): inactive: 9.72%; for `CCOC(=O)c1ccc(NP(C)(=O)Oc2ccc(OC)cc2)cc1` (centres undefined): inactive: 9.69%; for `O=[N+]([O-])c1cc([N+](=O)[O-])c(O)c([N+](=O)[O-])c1.c1ccc(Oc2ccncc2)cc1`: inactive: -1.83%. For `CCOP(C)(=S)SCC(=O)NC(C)C(=O)O` (centres undefined) the value was inactive: 21%; for `CP(=O)(NC(=O)Nc1ccccc1)Oc1ccccc1` (centres undefined), inactive: 35.3%; for `CCc1ccc(OP(C)(=O)N2CCN(c3ccc([N+](=O)[O-])cc3)CC2)cc1` (centres undefined), inactive: 17.4%. For `Cc1cc(C)cc(OP(C)(=O)Nc2ccc(SC(F)(F)F)cc2)c1` (centres undefined), the inhibition is inactive: 17.9%. For `Cc1ccc(Nc2c([N+](=O)[O-])cc([N+](=O)[O-])cc2[N+](=O)[O-])cc1` the value was inactive: 22.7%; for `Cc1cccc(C)c1OP(C)(=O)Nc1ccc(SC(F)(F)F)cc1` (centres undefined), inactive: -45.8%. With `CP(=O)(Nc1ccc(SC(F)(F)F)cc1)Oc1ccc(Cl)cc1` (centres undefined), the inhibition was inactive: 0.65%. For `CP(=O)(Oc1ccccc1)OC(c1ccccc1)C(F)(F)F` (centres undefined) the value was inactive: -17.8%.

As for `CP(=O)(Nc1ccccc1Br)Oc1ccccc1` (centres undefined), the inhibition was inactive: 12.7%. The same measure for `COc1ccccc1OP(C)(=O)Nc1ccccc1` (centres undefined): inactive: 5.85%; for `CP(=S)(Nn1cnnc1)Oc1ccccc1` (centres undefined): inactive: -1.74%.

On to `COc1ccc(-c2ccccn2)cc1.O=[N+]([O-])c1cc([N+](=O)[O-])c(O)c([N+](=O)[O-])c1`, for which the inhibition is inactive: -29.8%. The same measure for `CCCOc1ccc(NP(C)(=O)Oc2ccc(Cl)cc2)cc1` (centres undefined): inactive: 1.84%; for `CP(=O)(Nc1ccc(SC(F)(F)F)cc1)Oc1ccccc1` (centres undefined): inactive: 7.37%.

With `COc1ccccc1OP(C)(=O)Nc1c(C)cccc1C` (centres undefined), the inhibition is inactive: -6.16%. `CN1CCCCC1COC(=O)C1(O)c2ccccc2CCc2ccccc21` (centres undefined): the inhibition is inactive: 7.49%. For `CC1=C2N=C(C=C3N=C(C(C)=C4[N-][C@@](C)([C@@H]5N=C1[C@](C)(CCC(=O)NC[C@@H](C)OP(=O)([O-])O[C@H]1[C@@H](O)[C@@H](n6cnc7cc(C)c(C)cc76)O[C@@H]1CO)[C@H]5CC(N)=O)[C@@](C)(CC(N)=O)[C@@H]4CCC(N)=O)[C@@](C)(CC(N)=O)[C@@H]3CCC(N)=O)C(C)(C)[C@@H]2CCC(N)=O.[C-]#N.[Co+3]` the value was inactive: 6.39%; for `O=[N+]([O-])c1cc([N+](=O)[O-])c(Nc2nnnn2CCO)c([N+](=O)[O-])c1`, inactive: -3.95%. For `CCOC(=O)C(CC)C1=NC(C)(C)Cc2ccccc21.O=[N+]([O-])c1cc([N+](=O)[O-])c(O)c([N+](=O)[O-])c1` (centres undefined) the value was inactive: -10.5%; for `Cc1nc2ccc3ccccc3c2s1.O=[N+]([O-])c1cc([N+](=O)[O-])c(O)c([N+](=O)[O-])c1`, inactive: -5.73%; for `O=[N+]([O-])c1cc([N+](=O)[O-])c(-c2cnn(-c3ccccc3)c2)c([N+](=O)[O-])c1`, inactive: 49.3%.

Turning to `CN(Cc1cccnc1)C(=O)COc1ccc(Cl)c(Cl)c1.O=[N+]([O-])c1cc([N+](=O)[O-])c(O)c([N+](=O)[O-])c1`, the inhibition is inactive: -25.4%. Take `O=[N+]([O-])c1cc([N+](=O)[O-])c(-n2nnc3ccccc32)c([N+](=O)[O-])c1`: the inhibition was inactive: 4.35%.

As to `Cc1ccc(C)c(NP(C)(=O)Oc2ccccc2)c1` (centres undefined), the inhibition was inactive: 13.7%. For `Cc1cc(C)cc(OP(C)(=O)Nc2ccccn2)c1` (centres undefined) the value was inactive: 5.76%. For `CP(=O)(Nc1cccc(Br)c1)Oc1ccccc1` (centres undefined) the value was inactive: 16%; for `CCOC(=O)c1ccc(NP(C)(=O)Oc2cc(C)cc(C)c2)cc1` (centres undefined), inactive: -14.6%. Turning to `Cc1cc(C)cc(OP(C)(=O)Nc2ccc(C)cc2C)c1` (centres undefined), the inhibition was inactive: -23.3%. In the case of `COc1ccccc1OP(C)(=O)Nc1cccc(Br)c1` (centres undefined), the inhibition was inactive: -14.5%. For `CC1=NCCc2c1[nH]c1ccccc21.O=[N+]([O-])c1cc([N+](=O)[O-])c(O)c([N+](=O)[O-])c1` the value was inactive: -19.6%; for `O=C(O)c1cccc(Nc2c([N+](=O)[O-])cc([N+](=O)[O-])cc2[N+](=O)[O-])c1`, inactive: -4.02%.

With `CP(=O)(Nc1ccccc1)Oc1ccc(F)cc1` (centres undefined), the inhibition is inactive: -0.16%. For `O=[N+]([O-])c1cc([N+](=O)[O-])c(OC2CCCCC2O)c([N+](=O)[O-])c1` (centres undefined) the value was inactive: -24.7%; for `CCCCCOc1ccc(NP(C)(=O)Oc2ccc(Cl)cc2Cl)cc1` (centres undefined), inactive: 1.68%; for `Cc1c([N+](=O)[O-])cc([N+](=O)[O-])c(Br)c1[N+](=O)[O-]`, inactive: -21%. With `CCN(CC)CCCOC(=O)C(O)(c1ccccc1)C1CCCCC1` (centres undefined), the inhibition was inactive: 3.62%. The same measure for `CCOC(=O)c1ccc(NP(C)(=O)Oc2ccc(F)cc2)cc1` (centres undefined): inactive: 3.02%. The same measure for `COc1ccc(OP(C)(=O)Nc2ccc(SC(F)(F)F)cc2)cc1` (centres undefined): inactive: -10.9%; for `CCN(CC)CCCNc1ccccc1[N+](=O)[O-].O=[N+]([O-])c1cc([N+](=O)[O-])c(O)c([N+](=O)[O-])c1`: inactive: -13.8%. For `COc1ccc2c(c1O)-c1c(O)c(OC)cc3c1[C@H](C2)[N+](C)(C)CC3.O=[N+]([O-])c1cc([N+](=O)[O-])c([O-])c([N+](=O)[O-])c1[O-]` the value was inactive: -13%; for `O=C(OC1CN2CCC1CC2)c1ccc([N+](=O)[O-])cc1` (centres undefined), inactive: -8.71%; for `O=C(OCCN1CCN(CCOCc2ccccc2)CC1)C(O)(c1ccccc1)c1ccccc1`, inactive: 20.9%. On to `CP(=O)(Nc1ccccc1F)Oc1ccccc1` (centres undefined), for which the inhibition was inactive: -8.74%. For `CC(C)c1ccc(OP(C)(=O)Nc2ccc(SC(F)(F)F)cc2)cc1` (centres undefined) the value was inactive: 17.6%. For `O=[N+]([O-])c1cc([N+](=O)[O-])c(Nc2ccc(Cl)cc2)c([N+](=O)[O-])c1` the value was inactive: 37.8%; for `Cc1ccccc1NP(C)(=O)Nc1ccccc1C`, inactive: -13.4%; for `O=[N+]([O-])c1cc([N+](=O)[O-])c(C(F)(F)F)c([N+](=O)[O-])c1O`, inactive: 9.6%. Regarding `CP(=O)(Nc1ccc2c(c1)OCCO2)Oc1ccccc1` (centres undefined), the inhibition is inactive: -7.98%. The same measure for `CCOP(C)(=S)SCC(=O)NC(C)(CC)C(=O)O` (centres undefined): inactive: -1.66%. For `CP(=O)(Nc1ccc(SC(F)(F)F)cc1)Oc1ccc(F)cc1` (centres undefined) the value was inactive: 7.28%. Take `Cc1c(C(c2ccc3c(c2)OCO3)c2c(C)n(C)n(-c3ccccc3)c2=O)c(=O)n(-c2ccccc2)n1C.O=[N+]([O-])c1cc([N+](=O)[O-])c(O)c([N+](=O)[O-])c1`: the inhibition was inactive: 1.72%. For `O=[N+]([O-])c1ccc(OP2(=O)COCCO2)cc1` (centres undefined) the value was inactive: 9.35%. `Cc1cc(-c2cccc3ccccc23)c(C)cn1.O=[N+]([O-])c1cc([N+](=O)[O-])c(O)c([N+](=O)[O-])c1`: the inhibition was inactive: -3.41%. For `O=[N+]([O-])c1cc([N+](=O)[O-])c(NCC2CCS(=O)(=O)C2)c([N+](=O)[O-])c1` (centres undefined) the value was inactive: -8.9%; for `CN(C)CCOC(=O)C(O)(c1ccccc1)C1CCCCC1` (centres undefined), inactive: -9.2%. For `COc1ccc(NP(C)(=O)Oc2ccccc2OC)cc1` (centres undefined) the value was inactive: 4.53%; for `COc1ccc(OP(C)(=O)Nc2cccc(Br)c2)cc1` (centres undefined), inactive: 21.5%; for `CCOC(=O)c1ccc(NP(C)(=O)Oc2ccc(Cl)cc2)cc1` (centres undefined), inactive: 4.58%. For the compound `CP(=O)(OC12CC3CC(CC(C3)C1)C2)OC12CC3CC(CC(C3)C1)C2`, the inhibition is inactive: 1.48%.

Regarding `CN(C)C(=O)c1c([N+](=O)[O-])cc([N+](=O)[O-])cc1[N+](=O)[O-]`, the inhibition was inactive: 16.7%. The same measure for `COc1ccccc1OP(C)(=O)Nc1ccccc1Br` (centres undefined): inactive: -4.76%. The same measure for `CC(C)(C)c1ccc(OP(C)(=O)O)cc1`: inactive: 2.84%; for `CP(=O)(Nc1ccc(Cl)cc1)Oc1ccc(F)cc1` (centres undefined): inactive: 0.63%; for `COc1ccccc1OP(C)(=O)Nc1c(C)n(C)n(-c2ccccc2)c1=O` (centres undefined): inactive: -4.34%. For `O=C(OCCCN1CCCC1)C(O)(c1ccccc1)C1CCCCC1` (centres undefined) the value was inactive: 9.72%. Take `CP(=O)(Oc1ccccc1)N1CCOC1=O` (centres undefined): the inhibition was inactive: 6.66%. For `CCc1ccc(OP(C)(=O)Nc2cccnc2)cc1` (centres undefined) the value was inactive: -3.4%.

In the case of `CCN(CC)CC(O)COC(=O)C(O)(c1ccccc1)C1CCCCC1` (centres undefined), the inhibition is inactive: 4.62%. The same measure for `COc1ccc(OP(C)(=O)Nc2ccc(Br)cc2)cc1` (centres undefined): inactive: -6.9%. For `CP(=O)(Nc1ccccn1)Oc1ccccc1` (centres undefined) the value was inactive: 17%; for `COc1ccccc1OP(C)(=O)Nc1ccc(C)cc1C` (centres undefined), inactive: 23.2%; for `CCc1ccc(OP(C)(=O)O)cc1`, inactive: 9.69%. The same measure for `Cc1c(NP(C)(=O)Oc2ccc(C(C)C)cc2)c(=O)n(-c2ccccc2)n1C` (centres undefined): inactive: 5.32%; for `O=[N+]([O-])c1cc([N+](=O)[O-])c(Nc2ccccn2)c([N+](=O)[O-])c1`: inactive: 3.31%; for `COc1ccc(OP(C)(=O)Nc2ccccn2)cc1` (centres undefined): inactive: -2.52%. For the compound `CN(C)CCOC(=O)C(O)(c1ccccc1)C1CCCC1` (centres undefined), the inhibition was inactive: -21.3%.

On to `COc1ccccc1OP(C)(=O)Nc1ccc(Br)cc1` (centres undefined), for which the inhibition was inactive: 11.3%. The same measure for `CP(=O)(Nc1ccc(Cl)cc1Cl)Oc1ccccc1` (centres undefined): inactive: -15.9%. For `CCCCCCCCCCCCCCCC1C[N+](C)(C)CCOP(C)(=O)O1` (centres undefined) the value was inactive: -8.28%; for `CP(=O)(OCCOc1ccccc1)OCCOc1ccccc1`, inactive: 8.43%. For `COc1ccccc1OP(C)(=O)Nc1ccc(C)c(C)c1` (centres undefined) the value was inactive: 12.7%; for `COc1ccc(OP(C)(=O)Nc2ccccc2Br)cc1` (centres undefined), inactive: -2.83%; for `O=C1C(O)=C([N+](=O)[O-])C(=O)C(O)=C1[N+](=O)[O-]`, inactive: -8.68%.

Take `Cc1cc(C)cc(OP(C)(=O)Nc2cccc(C(F)(F)F)c2)c1` (centres undefined): the inhibition is inactive: 2.58%.

As usually defined, the inhibition is the change of the read-out against control, counted positive when it falls.
